Measured values from US4469707A, “Method for treatment of senile dementia” (Astra Lakemedel Aktiebolag, priority 1983, dated 1984).

System: 5-HT uptake
Experiment: Prevention of H 75/12-induced brain 5-HT depletion (inhibition of 5-HT uptake in vivo, by brain region)
Design: species or system rats
Protocol: The regional specificity of the inhibition of the 5-HT was determined by studying whether GEA 654, alaproclate (2-(4-chloro-phenyl)-1,1-dimethylethyl-2-aminopropanoate), given i.p. to rats 30 min before H 75/12 (α-ethyl-4-methyl-m-tyramine) could prevent the brain 5-HT depletion induced by H 75/12, 50 mg/kg i.p., 2 h before sacrifice.

[1] = rats, 3 mg/kg i.p., 30 min before H 75/12 50 mg/kg i.p.
[2] = rats, 10 mg/kg i.p., 30 min before H 75/12 50 mg/kg i.p.
[3] = rats, 1,5 mg/kg i.p., 30 min before H 75/12 50 mg/kg i.p.

For `CC(N)C(=O)OC(C)(C)Cc1ccc(Cl)cc1` (stereo not drawn) [Alaproclate, 2-(4-chloro-phenyl)-1,1-dimethylethyl-2-aminopropanoate], the “Regional specificity in blocking the 5-HT uptake in vivo” value (in words, brain regions compared, 3 mg/kg dose level for alaproclate) was “most potent in the hippocampus followed by the hypothalamus”, the “% Inhibition of 5-HT uptake in Hippocampus” value (shortened to “% Inhibition … in Hippocampus”) [1] was 40% and the “% Inhibition of 5-HT uptake in Hypothalamus” value (“% Inhibition … in Hypothalamus” for short) [1] was 25%. The “% Inhibition of 5-HT uptake in Spinal cord” value [1] was 17%, the “% Inhibition of 5-HT uptake in Striatum” value [1] was 6% and the “% Inhibition of 5-HT uptake in Cortex” value [2] was 13%. The “% Inhibition … in Hippocampus” value [2] was 74%, the “% Inhibition … in Hypothalamus” value [2] was 55% and the “% Inhibition of 5-HT uptake in Spinal cord” value [2] was 33%. The “% Inhibition of 5-HT uptake in Striatum” value [2] was 46%, the “% Inhibition … in Hippocampus” value [3] was 10% and the “% Inhibition … in Hypothalamus” value [3] was 10%.
